Values of other authors, collected in paper PMC7000712, “A kinetic method for measuring agonist efficacy and ligand bias using high resolution biosensors and a kinetic data analysis framework” (Scientific Reports, 2020).

Tested on: dopamine D2 receptor
Parameters: method as in PMID 22025698, PMID 27805392, PMID 22845053, PMID 18455202, PMID 18768802
Conditions: cited from earlier work

O=C1CCc2ccc(OCCCCN3CCN(c4cccc(Cl)c4Cl)CC3)cc2N1 [aripiprazole]
arrestin bias (in words): arrestin-biased ligand
